Source: PubChem BioAssay AID1700 (The Scripps Research Institute Molecular Screening Center, 2009)
The entries are a selection whose mix differs from that of the whole data set. Activity calls are given as the source filed them.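 Rule for the calls: active = inhibition above a per-plate limit of that plate's mean compound inhibition plus 3 SD (cut at about 60% in these data); inactive = the rest.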

Assay: KLF5 expression inhibitors, primary screen, DLD-1 cells, luminescence (AID 1700);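 note: 0% = DMSO wells and 100% = LY294002 at 200 µM; higher means less KLF5 promoter-driven luciferase light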
Settings: DLD-1 KLF5 promoter-luciferase reporter, at 5 µM, stronger effect = higher value

Row | Structure (SMILES) | inhibition
1 | Cc1c(NP(C)(=O)Oc2ccc(C(C)C)cc2)c(=O)n(-c2ccccc2)n1C (stereo unspecified) | inactive: -27.4%
